From patent US12655189B2, “DOTA binding chimeric antigen receptor for cellular therapy” (THE TRUSTEES OF THE UNIVERSITY OF PENNSYLVANIA, priority 2019, dated 2026)
“Also recorded” adds a separate entry of the source.

Key:
MDA468 (EGFR+) cells = experiment: Redirected lysis of MDA468 cells by DOTA CAR T cells (xCellegence); assay type: cell-based, human; conditions: for lysis of MDA468 (EGFR+) cells: DOTA CAR T cells plus varying amounts of targeting ligand
Protocol: (§1) FIGS. 5A-5F illustrate the ability to change the DOTA-Y antibody specificity to target CAR T cells against various cell surface antigens. FIG. 5A is an experimental schematic illustrating anti-DOTA immune receptor T cells lyse multiple tumor cells with introduction of specific DOTA-Y labeled antibodies. […] DOTA CAR T cells were added to wells at a density of 0.5×10^5 receptor positive cells/well. Measurements were continued for 4 days. xCellegence software was used to normalize readings and calculate lysis values compared to tumor only control. Lysis (%) of Her2+ SKBR3 cells (left) and of FRα+ T47D cells (right) 16 hours post T cell addition is shown. […] T cells added at T=0. […] Measurements were continued for 4 days. xCellegence software was used to normalize readings and calculate lysis values compared to tumor only control. T cells added at T=0.
(§2) To investigate the ability of DOTA-Y-CAR T cell complexes to lyse target cells, HER2-specific Herceptin-DOTA-Y-CAR T cell complexes were co-cultured with Her2^+ SKBR3 breast cancer cells (FIG. 3G). Cancer cell killing was not detectable in co-cultures of DOTA CAR T cells and cancer cells until Y-DOTA-labeled Herceptin Ab was added to culture at various doses.
The specificity of pre-loaded DOTA-Y antibodies was tested. Antibodies specific for the cell surface receptors Her2 (Herceptin), Folate receptor (Mov18), or EGFR (Cetuximab), which were conjugated to DOTA-Y, were combined with CAR T cells expressing various intracellular domains and incubated with multiple cell lines, including SKBR3 (Her2+), T47D (Fra+), SKOV3 (Her2^+), and MDA468 (EGFR^+) cells (FIG. 5A). DOTA-28z-CAR T cells combined with Herceptin or Mov18 antibodies were able to lyse SKBR3 and T47D cells, respectively (FIG. 5B). Additionally, various amounts of Herceptin or Cetuximab antibody was tested in SKOV3 or MDA468 cells, respectively (FIGS. 5C and 5D, respectively).
Varying the number of chelators per antibody allows for reduced non-specific cell lysis while maintaining strong lytic function (FIG. 8)

[1] = tested on: Skov3 (HER2+) cells expressing firefly luciferase; experiment: Luciferase specific lysis assay, Skov3; assay type: cell-based; conditions: 16 hours, 2.5:1 E:T ratio, valency or hinge varied
Protocol: Herceptin was conjugated to DOTA-NHS molecules at varying molar ratios in order to create targeting ligands with lower valency. Skov3 (HER2+) cells expressing firefly luciferase (fLuc) were incubated for 16 hours with DOTA CAR T cells at a 2.5:1 E:T ratio and targeting ligands at a range of concentrations. Each condition was run in triplicate. Luminescence was measured after co-culture and used to calculate specific lysis (FIG. 21, right panel).
DOTA CARs with varying hinge lengths were created to allow the possibility of optimizing physical interactions at the cell surface (FIG. 23). The standard DOTA CAR uses a CD8a hinge (45 AA). DOTA CARs with a shorter IgG4 hinge (12 AA) and a longer IgG4-CH2CH3 hinge (216 AA) were created. The IgG4 hinge was inserted with and without an amino acid change that allows cross-linking. To assess their function, Skov3 (HER2+) cells expressing fLuc were incubated for 16 hours with DOTA CAR T cells at a 2.5:1 E:T ratio and targeting ligand at a range of concentrations. Each condition was run in triplicate. Luminescence was measured after co-culture and used to calculate lysis.

[2] = tested on: Skov3 cells expressing fLuc; experiment: In vivo anti-tumor activity versus DOTA-conjugation valency; set-up: species or system NSG mice; conditions: 24 days after CAR T cell injection; DOTA BBz T cells, 25 ug ligand I.P. every 4 days
Protocol: NOD.Cg-Prkdc^scid Il2rg^tm1wj1/SzJ (NSG) mice were injected in the intraperitoneal (I.P.) cavity with 1×10^6 Skov3 cells expressing fLuc (FIGS. 28A-28B). After 6 days to allow tumor engraftment, 25 ug of targeting ligand was injected I.P. into each mouse. One day later, 10×10^6 CAR+ T cells were injected I.P. Treatment groups were given DOTA BBz T cells and either high valency or low valency Her-Bn-DOTA-Y. Control groups were given DOTA Dz T cells and targeting ligands or DOTA BBz T cells and saline. Targeting ligand was injected every 4 days and tumors were monitored via bioluminescence imaging.

[3] = tested on: MDA468 (CD20-/EGFR+) cells; experiment: Luciferase lysis assay, MDA468; assay type: cell-based; conditions: 16 hours, 2.5:1 E:T, average of 1 DOTA per antibody
Protocol: Cetuximab and Rituximab were conjugated to Bn-DOTA to create targeting ligands with an average of 1 DOTA molecule per antibody, confirmed by MALDI TOF. MDA468 (CD20-/EGFR+) cells and Ramos (CD20+/EGFR−) cells expressing fLuc were incubated for 16 hours with DOTA CAR T cells at a 2.5:1 E:T ratio and targeting ligands at a range of concentrations. Each condition was run in triplicate. Luminescence was measured after co-culture and used to calculate lysis.

SKBR3 (Her2+) cells = experiment: Redirected lysis of SKBR3 cells by DOTA CAR T cells (xCellegence); assay type: cell-based, human; conditions: DOTA CAR T cells plus DOTA-Y conjugated Herceptin
Protocol: as §1, §2
The specificity of pre-loaded DOTA-Y antibodies was tested. […]

[4] = tested on: anti-DOTA immune receptor T cells; experiment: Pre-loading of DOTA-Y labeled antibody onto DOTA immune receptor T cells (flow cytometry); assay type: cell-based, human
Source text: FIGS. 4A-4C illustrate that anti-DOTA immune receptor T cells permit pre-loading of DOTA-Y labeled targeting ligands. FIG. 4A illustrates the pre-loading protocol. 4D5 is a humanized Herceptin antibody.
One key feature of the present invention is the ability to alter the specificity of the DOTA-Y by loading the DOTA with target-specific ligands/antibodies. A protocol for pre-labeling the antibodies was optimized and tested. Primary human T cells were transduced with lentivirus containing GFP and DOTA immune receptor (FIG. 4A). […] Excess antibody was washed and, at various time points post-antibody addition, cells were stained with soluble recombinant Her2-His, followed by PE anti-His APC antibody and analyzed by flow cytometry, gating on live cells.

Substance: Herceptin-Bn-DOTA: Herceptin conjugated with P-SCN-Bn-DOTA chelator
- non-specific lysis of MDA468 (Her2 negative) cells (MDA468 (EGFR+) cells; Herceptin-based ligand on antigen negative cells): occurs at high concentrations of the targeting ligands
- specific lysis of Skov3 (HER2+) cells [1]: reduced off-target lysis while maintaining efficacy against antigen-expressing cells

Substance: low valency Her-Bn-DOTA-Y: Herceptin-Bn-DOTA-Y targeting ligand of low DOTA valency
- tumor burden (bioluminescence) [2]: reduced in two mice of the low valency group, but this was not significant

Substance: high valency Her-Bn-DOTA-Y: Herceptin-Bn-DOTA-Y targeting ligand of high DOTA valency
- tumor burden (bioluminescence) [2]: significantly reduced (p=0.012)

Substance: Cetuximab-Bn-DOTA: Cetuximab conjugated to Bn-DOTA, average of 1 DOTA molecule per antibody
- lysis of MDA468 cells [3]: able to specifically lyse their respective target cell lines

Substance: Herceptin-NHS-DOTA: Herceptin conjugated to DOTA-NHS molecules
- specific lysis of Skov3 (HER2+) cells [1]: required a higher valency to effectively lyse target cells

Substance: Herceptin-DOTA-Y: Herceptin labeled with DOTA-NHS-ester and incubated with yttrium chloride
- lysis of SKBR3 (Her2+) cells (SKBR3 (Her2+) cells): rapid and “on demand”
- loading of antibody onto DOTA T cells ([4]; 1 hour at 37° C., detected with Her2-His): dose-dependent, low level loading
- time to full loss of loading ([4]; post-antibody addition): ≤ 72 h
- lysis of MDA468 (EGFR+) cells (MDA468 (EGFR+) cells): only the EGFR-specific Cetuximab-loaded CAR was able to lyse

Substance: Cetuximab-DOTA-Y: EGFR-specific Cetuximab antibody conjugated to DOTA-Y
- lysis of MDA468 (EGFR+) cells (MDA468 (EGFR+) cells): able to lyse the MDA468 cells; also recorded: dose-dependent lysis of MDA468 cells
